Experiment [1] concerns the target I-domain from integrin alpha 2 beta 1, locked open I-domain cleaved of its GST tag (CLOI). Description: single molecule force spectroscopy (AFM); as a1, after free I-domain was flowed into the AFM fluid cell to block the peptide on the tip; means of four cantilevers.
For experiment [2] the target is unchanged. Description: single molecule force spectroscopy (AFM); I-domain (CLOI) tethered by a cysteine through a PEG crosslinker to template stripped gold; peptide tethered through PEG to a gold coated cantilever; fluid cell in PBS; amplitude 200 nm, 1 Hz, 1000 approach-retract cycles a tip; uninhibited; single loading rate.

Substance “GFOGER peptide, synthetic triple helical collagen related peptide GPC[GPP]5GFOGER[GPP]5GPCG” yielded an unbinding probability after blocking with free I-domain in experiment [1] of 14%. Moreover, in experiment [2], the peak force (peak 1) is 13 pN, the peak force (peak 2) came out at 26 pN, the peak force (peak 3) was 37 pN and the peak force (peak 4) was 55 pN. In experiment [2], this substance gave a peak force (peak 5) of 71 pN, a peak force (peak 6) of 89 pN and an unbinding probability of 20%.
In experiment [2], “GPP peptide, synthetic triple helical control peptide GPC[GPP]10GPCG” had a peak force (peak 1) of 16 pN, a peak force (peak 2) of 27 pN, a peak force (peak 3) of 34 pN and a peak force (peak 4) of 52 pN. In addition, in experiment [2], the peak force (peak 5) is 65 pN, the peak force (peak 6) came out at 72 pN, the peak force (peak 7) was found to be 80 pN and the peak force (peak 8) was found to be 90 pN. In experiment [2], this substance yielded a peak force (peak 9) of 109 pN and an unbinding probability of 8%.

These data come from PMC3588017.
